The values below are quoted from earlier work in PMC3228891 (2011).

By Ki is commonly meant the dissociation constant of the complex between target and ligand, obtained from inhibition or displacement.

For the data set, the target named is H1 receptor. To be noted: read-out: Ki H1 receptor (ChEMBLdb); known activity in ChEMBLdb ref 28; cited from earlier work.

On to `CN(C)CCCN1c2ccccc2Sc2ccccc21` [Promazine], for which the Ki was not above 10 µM.
